Columns and labels:
PDE1B = PDE1B (Homo sapiens (Human), UniProt Q01064); test: PDE1 inhibition assay (PDE1B), SPA with tritium labelled cAMP; format: biochemical; settings: 15 nM tritium labelled cAMP, 1 hr at room temperature
Text: (§1) Table 1 lists the IC50 value for inhibition of PDE1 by the compounds of the invention. […] PDE1 assays are described in the Experimental Section.

Chains of the proteins cited; added tags and fusions are not shown. Lines headed by an entry give the natural chain unless they say otherwise; changes in a name come on top.
UniProt Q01064: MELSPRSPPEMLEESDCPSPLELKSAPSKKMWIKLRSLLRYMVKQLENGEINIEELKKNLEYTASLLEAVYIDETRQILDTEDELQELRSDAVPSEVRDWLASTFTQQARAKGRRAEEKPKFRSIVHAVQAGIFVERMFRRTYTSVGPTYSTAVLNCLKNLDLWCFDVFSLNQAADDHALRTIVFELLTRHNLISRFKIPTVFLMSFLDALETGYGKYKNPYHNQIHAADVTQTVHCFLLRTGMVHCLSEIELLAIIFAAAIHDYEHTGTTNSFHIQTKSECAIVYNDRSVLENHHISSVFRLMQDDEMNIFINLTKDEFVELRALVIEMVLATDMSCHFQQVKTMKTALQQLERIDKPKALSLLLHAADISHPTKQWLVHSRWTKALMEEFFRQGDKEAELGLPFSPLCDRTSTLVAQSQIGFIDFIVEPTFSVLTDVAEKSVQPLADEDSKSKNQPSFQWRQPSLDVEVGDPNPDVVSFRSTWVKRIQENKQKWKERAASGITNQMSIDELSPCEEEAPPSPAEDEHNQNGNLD
UniProt Q14123, whole entry: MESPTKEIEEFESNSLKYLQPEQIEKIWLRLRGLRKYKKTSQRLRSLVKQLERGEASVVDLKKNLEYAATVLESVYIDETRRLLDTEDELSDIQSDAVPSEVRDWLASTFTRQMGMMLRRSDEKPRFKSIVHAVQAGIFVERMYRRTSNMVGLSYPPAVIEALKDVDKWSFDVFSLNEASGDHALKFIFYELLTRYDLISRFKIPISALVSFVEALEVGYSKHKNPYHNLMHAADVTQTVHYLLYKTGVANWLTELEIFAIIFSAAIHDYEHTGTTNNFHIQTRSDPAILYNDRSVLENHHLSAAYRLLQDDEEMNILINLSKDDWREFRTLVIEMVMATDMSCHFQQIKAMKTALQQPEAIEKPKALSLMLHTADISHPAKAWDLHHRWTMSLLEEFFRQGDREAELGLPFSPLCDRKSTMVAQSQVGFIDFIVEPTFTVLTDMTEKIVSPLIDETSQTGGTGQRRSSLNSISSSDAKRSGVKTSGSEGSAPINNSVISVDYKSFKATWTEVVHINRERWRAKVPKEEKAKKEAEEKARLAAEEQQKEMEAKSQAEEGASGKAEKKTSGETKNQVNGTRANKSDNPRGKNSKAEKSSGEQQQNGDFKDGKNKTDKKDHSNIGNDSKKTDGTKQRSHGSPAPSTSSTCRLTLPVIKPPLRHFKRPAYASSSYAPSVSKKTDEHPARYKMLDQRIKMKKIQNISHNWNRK

PDE1C = PDE1C (Homo sapiens (Human), UniProt Q14123); test: PDE1 inhibition assay (PDE1C), SPA with tritium labelled cAMP; format: biochemical; settings: 15 nM tritium labelled cAMP, 1 hr at room temperature
Text: as §1

SMILES | IC50 (PDE1B) [nM] | IC50 (PDE1C) [nM]
CCOc1ncccc1-c1cc(NCc2cnn(C)c2)c2c(cnn2CC)n1 [Example 26, 5-(2-ethoxy-3-pyridyl)-1-ethyl-N-[(1-methylpyrazol-4-yl)methyl]pyrazolo[4,3-b]pyridin-7-amine] | 22 | 440
CCOc1ncccc1-c1cc(NCc2ccncc2OC)c2c(n1)c(C)nn2C(C)C [Example 172, 5-(2-ethoxy-3-pyridyl)-1-isopropyl-N-[(3-methoxy-4-pyridyl)methyl]-3-methyl-pyrazolo[4,3-b]pyridin-7-amine] |  | 46

From US10512632B2, “1 H-pyrazolo[4,3-B]pyridines as PDE1 inhibitors” (priority 2016, dated 2019)
